Results on one substance are retold here after patent publication US6350740B1, “Transplatinum complexes as cytotoxic and anticancer agents” (Virginia Commonwealth University, priority 2000, dated 2002).

The test system of this data set is A 2780.

On to trans-[PtCl(Me2SO)(pyridine)2]^+, for which the “in vitro cytotoxicity compared with parent” value was “equivalent to the parent trans-[PtCl2(pyridine)2]”.
